The values that follow come from patent publication US7517517B2 (Janssen Pharmaceutica N.V., priority 2002, dated 2009).

Sequences of proteins named here, by UniProt entry; tags and fusion partners are left off. Residues count along the entry.
UniProt P23385, 19-1199 limits assumed: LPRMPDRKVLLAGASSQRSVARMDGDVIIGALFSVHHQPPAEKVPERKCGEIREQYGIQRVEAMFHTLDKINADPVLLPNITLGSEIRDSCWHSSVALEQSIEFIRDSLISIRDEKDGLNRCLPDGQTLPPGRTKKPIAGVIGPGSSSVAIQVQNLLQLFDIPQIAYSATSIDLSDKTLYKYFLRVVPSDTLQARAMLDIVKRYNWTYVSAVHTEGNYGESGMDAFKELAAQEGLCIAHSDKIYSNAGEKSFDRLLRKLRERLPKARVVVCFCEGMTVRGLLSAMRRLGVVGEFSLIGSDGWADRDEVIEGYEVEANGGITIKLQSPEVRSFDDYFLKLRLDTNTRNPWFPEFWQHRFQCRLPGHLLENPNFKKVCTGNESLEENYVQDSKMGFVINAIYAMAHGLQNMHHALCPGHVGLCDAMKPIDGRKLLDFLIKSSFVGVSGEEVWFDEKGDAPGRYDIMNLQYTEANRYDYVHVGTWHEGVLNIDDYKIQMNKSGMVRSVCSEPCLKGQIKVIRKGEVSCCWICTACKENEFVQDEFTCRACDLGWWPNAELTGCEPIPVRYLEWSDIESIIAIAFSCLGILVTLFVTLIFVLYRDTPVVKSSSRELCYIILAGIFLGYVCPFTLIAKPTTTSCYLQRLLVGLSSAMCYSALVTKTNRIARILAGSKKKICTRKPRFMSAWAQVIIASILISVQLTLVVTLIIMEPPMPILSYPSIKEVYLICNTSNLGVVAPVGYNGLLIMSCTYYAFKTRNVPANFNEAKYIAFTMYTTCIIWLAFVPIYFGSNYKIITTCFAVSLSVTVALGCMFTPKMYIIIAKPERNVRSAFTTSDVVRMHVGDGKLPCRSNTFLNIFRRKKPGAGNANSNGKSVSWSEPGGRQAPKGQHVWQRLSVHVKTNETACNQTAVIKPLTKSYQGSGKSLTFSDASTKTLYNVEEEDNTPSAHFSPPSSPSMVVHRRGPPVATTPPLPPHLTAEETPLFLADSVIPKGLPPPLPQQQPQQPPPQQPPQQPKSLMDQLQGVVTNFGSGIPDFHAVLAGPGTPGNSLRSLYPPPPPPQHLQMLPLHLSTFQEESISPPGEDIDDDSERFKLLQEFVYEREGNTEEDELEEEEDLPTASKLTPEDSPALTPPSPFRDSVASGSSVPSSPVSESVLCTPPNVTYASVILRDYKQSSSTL

The target in assay [1] is cloned rat mGlu1 receptor (Rattus norvegicus, UniProt P23385). Put plainly: Signal transduction at the cloned rat mGlu1 receptor in CHO cells (glutamate-induced Ca2+ rise, FLIPR). The format is cell-based. The note with it: inhibition of glutamate-induced intracellular Ca2+ rise, CHO cells expressing mGlu1 receptor; compounds with pIC50 between 7 and 8.
Assay [2] has as its target T1, rat mGlu1a receptor (Rattus norvegicus, UniProt P23385). In words: [3H]quisqualate binding to rat mGlu1a receptor CHO-dhfr− membranes (saturation, inhibition).
Assay [3] addresses T1, rat mGlu1a receptor. In words: [3H]Compound A binding to rat mGlu1a receptor CHO-dhfr− membranes (saturation, kinetics, inhibition).
Setting [4] is: inhibition of [3H]quisqualate binding, mean ± SD of 2 experiments.

What is called pIC50 is −log10 of the IC50, conventionally taken in molar units. In the case of `O=C(Cc1ccsc1)c1ccc2nc3c(cc2c1)CCCS3`, in assay [1], the pIC50 is reported as 7.57. Same read-out and setting: then `CCc1c(CC)c2cc(C(=O)C3CCC(OC)CC3)ccc2[nH]c1=O` (stereo not drawn), with 7.81. The same measure, in the same setting: next, `COC1CCC(C(=O)c2ccc3[nH]c(=O)c(C)cc3c2)CC1` (stereo not drawn): 7.28; `CCc1cc2cc(C(=O)CC3CC4CCC3C4)ccc2[nH]c1=O` (stereo not drawn): 7.00. One may read the Hill coefficient as a measure of the steepness of the concentration-response curve. In general, Ki refers to the equilibrium dissociation constant of an inhibitor or competing ligand from its target. For the compound `C[C@@](N)(C(=O)O)c1ccc(C(=O)O)cc1`, on rat mGlu1a receptor [2] (setting [4]), the Hill coefficient is listed as 0.96 ± 0.02 and the Ki amounted to 165 µM. At rat mGlu1a receptor [3] (rat mGlu1a receptor CHO-dhfr− membranes), the “inhibition of [3H]Compound A binding (in words)” value is “did not inhibit”. The inhibitory constant (Ki) at rat mGlu1a receptor [3] (read-out: Ki (nM), inhibition of [3H]Compound A-binding, 2.5 nM [3H]Compound A, 30 min at 4° C., mean ± SD of 3–4 experiments) is more than 1e+06 nM. With `CCc1cc2cc(C(=O)C3(F)CCC(OC)CC3)ccc2[nH]c1=O` (stereo not drawn), in assay [1], the pIC50 is given as 7.90. In turn, `COC1CCC(F)(CC(=O)c2ccc3nc4c(cc3c2)CCCS4)CC1` (single isomer, unassigned) [479] displayed a pIC50 in assay [1] of 7.86. The compound `COC1CCC(C)(CC(=O)c2ccc3nc4c(cc3c2)CCCO4)CC1` (single isomer, unassigned) [486] gave a pIC50 in assay [1] of 7.73. The compound `COC1CCC(F)(CC(=O)c2ccc3nc4c(cc3c2)CCCS4)CC1` (single isomer, unassigned) [480] returned a pIC50 in assay [1] of 7.71. Turning to `N[C@@H](Cn1oc(=O)[nH]c1=O)C(=O)O` [quisqualate, reference compound], the “number of binding sites labelled as % of the number labelled by [3H]Compound A” value on rat mGlu1a receptor [2] (tested as the radiolabelled form) is listed as 60%.

`CCc1cc2cc(C(=O)[C@H]3CC[C@H](C)CC3)ccc2[nH]c1=O` came in with a pIC50 in assay [1] of 7.18. Take `CCc1cc2cc(C(=O)[C@@H]3CCC[C@@H](OC)C3)ccc2[nH]c1=O`: the pIC50 in assay [1] stood at 7.13. The same measure, in the same setting: next, `CC1(CC(=O)c2ccc3nc4c(cc3c2)CCS4)CC2CCC1C2` (single isomer, unassigned): 7.16; `CCCc1cc2cc(C(=O)C3CCC(OC)CC3)ccc2[nH]c1=O` (stereo not drawn): 7.49.

In the case of `CCc1cc2cc(C(=O)Cc3ccsc3)ccc2nc1C`, the pIC50 in assay [1] is 7.63. In assay [1], `COC1CCC(C)(CC(=O)c2ccc3nc4c(cc3c2)CCCS4)CC1` (single isomer, unassigned) showed a pIC50 of 7.84.

Take `COC1CCC(C)(CC(=O)c2ccc3nc4c(cc3c2)CCCO4)CC1` (single isomer, unassigned) [487]: the pIC50 in assay [1] worked out at 7.63. The same measure, in the same setting: then `CCc1cc2cc(C(=O)[C@H]3CC[C@@H](OC)CC3)ccc2nc1COC(C)=O` (relative stereo), with 7.05.
